From ChEMBL document CHEMBL1126017, “Phenylalkyl isothiocyanate-cysteine conjugates as glutathione S-transferase stimulating agents” (J Med Chem, 1992)

How the values were obtained:
[1] = tested on: glutathione S-transferase (Mus musculus); experiment: Induction of increased cytosolic glutathione S-transferase activity in lung of A/J mice treated with 3 doses of 0.04 mM compound (dissolved in 0.3 mL of cottonseed oil) for 2 days
[2] = tested on: glutathione S-transferase (Mus musculus); experiment: Induction of increased cytosolic glutathione S-transferase activity in liver of A/J mice treated with 3 doses of 0.04 mM compound (dissolved in 0.3 mL of cottonseed oil) for 2 days
[3] = tested on: glutathione S-transferase (Mus musculus); experiment: Induction of increased cytosolic glutathione S-transferase activity in bladder of A/J mice treated with 3 doses of 0.04 mM compound (dissolved in 0.3 mL of cottonseed oil) for 2 days; conditions: Urinary bladder
[4] = tested on: glutathione S-transferase (Mus musculus); experiment: Induction of increased cytosolic glutathione S-transferase activity in forestomach of A/J mice treated with 3 doses of 0.04 mM compound (dissolved in 0.3 mL of cottonseed oil) for 2 days; conditions: Stomach
[5] = tested on: glutathione S-transferase (Mus musculus); experiment: Induction of increased cytosolic glutathione S-transferase activity in large bowel mucosa of A/J mice treated with 3 doses of 0.04 mM compound (dissolved in 0.3 mL of cottonseed oil) for 2 days
[6] = tested on: glutathione S-transferase (Mus musculus); experiment: Induction of increased cytosolic glutathione S-transferase activity in small bowel mucosa of A/J mice treated with 3 doses of 0.04 mM compound (dissolved in 0.3 mL of cottonseed oil) for 2 days

Activity (uM min-1 (mg of protein)-1) [1]: 0.42
Activity (uM min-1 (mg of protein)-1) [2]: 1.2
Activity (uM min-1 (mg of protein)-1) [3]: 5.87
Activity (uM min-1 (mg of protein)-1) [4]: 0.98
Activity (uM min-1 (mg of protein)-1) [5]: 0.37
Activity (uM min-1 (mg of protein)-1) [6]: 1.37
SMILES: S=C=NCCCc1ccccc1
